Read-outs that look alike come from different tables or passages of the source.
Columns and labels:
[1] = target: Human BOAT1 (Homo sapiens, UniProt Q695T7); assay: hBOAT1 inhibitory test (phenylalanine uptake); details: read-out: hB0AT1 IC50, Human BOAT1 stable expression CHO cells, phenylalanine 0.25 mM
[2] = target: hERG channel (Homo sapiens, UniProt Q12809)
[3] = [3H]-L-phenylalanine uptake, radioactivity after 100 to 200 min

Sequences of proteins named here, by UniProt entry; tags and fusion partners are left off.
UniProt Q695T7, whole entry: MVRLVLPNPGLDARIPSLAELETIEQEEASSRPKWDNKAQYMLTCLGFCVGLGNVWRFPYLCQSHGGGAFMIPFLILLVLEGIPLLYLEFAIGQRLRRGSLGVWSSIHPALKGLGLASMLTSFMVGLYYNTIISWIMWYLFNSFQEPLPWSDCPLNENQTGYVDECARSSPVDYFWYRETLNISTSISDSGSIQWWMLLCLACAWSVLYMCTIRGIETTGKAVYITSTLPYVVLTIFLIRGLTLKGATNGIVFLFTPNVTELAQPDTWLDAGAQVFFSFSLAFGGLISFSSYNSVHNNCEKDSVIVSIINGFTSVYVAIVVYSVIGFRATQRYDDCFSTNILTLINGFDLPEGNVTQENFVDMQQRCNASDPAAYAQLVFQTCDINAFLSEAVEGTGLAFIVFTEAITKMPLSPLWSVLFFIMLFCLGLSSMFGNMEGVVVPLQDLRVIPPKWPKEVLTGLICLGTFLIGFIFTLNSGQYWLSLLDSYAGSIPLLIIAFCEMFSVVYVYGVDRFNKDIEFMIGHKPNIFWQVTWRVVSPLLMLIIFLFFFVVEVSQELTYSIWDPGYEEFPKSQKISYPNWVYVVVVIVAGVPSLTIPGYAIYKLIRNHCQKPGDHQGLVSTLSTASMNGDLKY
UniProt Q12809, whole entry: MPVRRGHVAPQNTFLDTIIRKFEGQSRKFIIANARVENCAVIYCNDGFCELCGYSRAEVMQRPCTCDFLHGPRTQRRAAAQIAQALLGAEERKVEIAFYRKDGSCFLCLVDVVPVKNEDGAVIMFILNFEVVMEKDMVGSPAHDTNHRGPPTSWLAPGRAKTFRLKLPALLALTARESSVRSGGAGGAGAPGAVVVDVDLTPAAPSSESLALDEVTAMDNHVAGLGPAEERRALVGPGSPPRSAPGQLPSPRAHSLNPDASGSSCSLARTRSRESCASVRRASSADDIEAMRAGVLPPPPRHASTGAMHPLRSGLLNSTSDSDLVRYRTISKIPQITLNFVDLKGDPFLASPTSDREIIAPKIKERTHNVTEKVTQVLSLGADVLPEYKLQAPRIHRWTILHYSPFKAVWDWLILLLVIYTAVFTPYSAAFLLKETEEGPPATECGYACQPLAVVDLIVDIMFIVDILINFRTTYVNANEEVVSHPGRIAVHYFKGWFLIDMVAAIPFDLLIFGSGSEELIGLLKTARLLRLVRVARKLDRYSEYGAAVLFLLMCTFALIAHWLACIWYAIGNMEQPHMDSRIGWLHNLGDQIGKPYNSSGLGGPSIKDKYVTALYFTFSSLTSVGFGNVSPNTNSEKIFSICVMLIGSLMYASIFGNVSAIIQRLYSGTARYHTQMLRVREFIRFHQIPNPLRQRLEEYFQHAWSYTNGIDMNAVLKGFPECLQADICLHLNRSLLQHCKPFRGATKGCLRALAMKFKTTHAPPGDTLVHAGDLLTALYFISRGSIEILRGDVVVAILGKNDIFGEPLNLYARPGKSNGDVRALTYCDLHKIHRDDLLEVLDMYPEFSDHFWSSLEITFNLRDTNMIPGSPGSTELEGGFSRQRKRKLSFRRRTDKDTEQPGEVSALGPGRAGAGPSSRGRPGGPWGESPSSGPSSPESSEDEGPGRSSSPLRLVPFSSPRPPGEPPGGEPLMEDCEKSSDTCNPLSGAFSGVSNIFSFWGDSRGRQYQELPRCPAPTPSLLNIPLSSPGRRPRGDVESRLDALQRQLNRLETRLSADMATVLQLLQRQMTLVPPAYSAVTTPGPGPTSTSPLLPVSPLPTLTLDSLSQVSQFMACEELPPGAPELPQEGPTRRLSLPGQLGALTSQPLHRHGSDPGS

**Q.** Which IC50 [1, 3] does the source give for `CC(C)(C)OC(=O)CCc1cc2n(n1)CCN(C(=O)CNC(=O)/C=C/c1ccc(C(F)(F)F)cc1)C2` here?
**A.** Its IC50 is 134 nM.

**Q.** With `O=C(O)Cc1cc(F)c2c(c1)CCN(C(=O)CNC(=O)/C=C/c1ccc(S(F)(F)(F)(F)F)cc1)C2` as the molecule, how does the IC50 [2] read?
**A.** Its IC50 is greater than 30000 nM.

**Q.** What about the IC50 [1, 3] of the same molecule?
**A.** The IC50 was 70 nM.

**Q.** `O=C(O)CNc1ccc2c(c1)CCN(C(=O)CNC(=O)/C=C/c1ccc(C(F)(F)F)cc1)C2` was tested. Which IC50 [1, 3] did it give?
**A.** Its IC50 is 71 nM.

**Q.** For `C[C@@H]1CN(C(=O)CNC(=O)/C=C/c2ccc(C(F)(F)F)cc2F)[C@@H](c2ccc(Cl)cc2)CN1CCC(=O)O`, which IC50 [2] is on record?
**A.** The IC50 was greater than 30000 nM.

**Q.** What about the IC50 ([1]; phenylalanine uptake) of the same molecule?
**A.** Its IC50 is 33 nM.

**Q.** Which results are given for `O=C(O)Cc1cc(F)c2c(c1)CCN(C(=O)CNC(=O)/C=C/c1ccc(S(F)(F)(F)(F)F)cc1F)C2`?
**A.** IC50 [2]: > 30000 nM; IC50 [1, 3]: 59 nM
